Experimental data published in patent US6934639B1, “Methods for designing agents that interact with MMP-13” (Wyeth, priority 2000, dated 2005).

Amino acid sequences for entries named in this document (tags omitted). Residues count along the entry.
UniProt P78536, 215-824: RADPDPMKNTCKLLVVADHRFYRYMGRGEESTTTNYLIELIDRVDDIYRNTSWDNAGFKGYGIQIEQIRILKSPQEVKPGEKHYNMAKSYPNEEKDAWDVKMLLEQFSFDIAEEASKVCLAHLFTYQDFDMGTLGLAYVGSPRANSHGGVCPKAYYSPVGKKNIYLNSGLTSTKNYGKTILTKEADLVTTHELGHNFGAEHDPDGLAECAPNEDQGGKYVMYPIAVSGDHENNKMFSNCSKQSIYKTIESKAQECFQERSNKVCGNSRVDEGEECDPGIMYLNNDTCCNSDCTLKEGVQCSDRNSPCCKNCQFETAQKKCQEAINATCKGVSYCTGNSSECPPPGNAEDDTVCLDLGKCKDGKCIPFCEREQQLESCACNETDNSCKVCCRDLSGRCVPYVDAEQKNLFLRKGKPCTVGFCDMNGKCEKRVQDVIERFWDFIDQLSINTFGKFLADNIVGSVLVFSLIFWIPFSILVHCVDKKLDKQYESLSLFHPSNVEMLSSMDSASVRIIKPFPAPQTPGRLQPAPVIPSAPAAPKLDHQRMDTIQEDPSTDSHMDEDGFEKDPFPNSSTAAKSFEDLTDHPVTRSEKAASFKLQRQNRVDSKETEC
UniProt P14780, 94-707, species assumed: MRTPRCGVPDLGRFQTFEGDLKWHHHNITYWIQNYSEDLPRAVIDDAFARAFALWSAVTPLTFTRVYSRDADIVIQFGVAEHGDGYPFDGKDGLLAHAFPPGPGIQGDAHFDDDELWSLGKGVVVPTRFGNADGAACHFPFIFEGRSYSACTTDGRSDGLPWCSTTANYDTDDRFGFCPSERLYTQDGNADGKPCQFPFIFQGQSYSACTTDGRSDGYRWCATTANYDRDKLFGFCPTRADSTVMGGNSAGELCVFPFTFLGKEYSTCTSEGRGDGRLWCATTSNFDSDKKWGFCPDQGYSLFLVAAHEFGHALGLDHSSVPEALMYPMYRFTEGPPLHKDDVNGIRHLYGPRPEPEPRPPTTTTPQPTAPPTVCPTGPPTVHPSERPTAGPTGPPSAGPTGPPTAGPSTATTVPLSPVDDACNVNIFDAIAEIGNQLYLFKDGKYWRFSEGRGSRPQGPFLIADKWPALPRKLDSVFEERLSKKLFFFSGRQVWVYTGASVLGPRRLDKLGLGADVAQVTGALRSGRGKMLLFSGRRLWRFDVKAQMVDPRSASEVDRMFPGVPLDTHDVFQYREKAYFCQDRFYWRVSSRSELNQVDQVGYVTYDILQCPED

Experiments:
Format in all cases: biochemical
TACE = TACE (Homo sapiens, UniProt P78536); assay: TACE enzyme inhibition (IC50)
MMP-9 = MMP-9 (Homo sapiens, UniProt P14780); assay: MMP-9 enzyme inhibition (IC50); details: relative to MMP-13, text
MMP-1 = molecular target: T1, MMP-1 (Homo sapiens, UniProt P03956); assay: MMP-1 enzyme inhibition (IC50)
T1 sequence (P03956 100-469): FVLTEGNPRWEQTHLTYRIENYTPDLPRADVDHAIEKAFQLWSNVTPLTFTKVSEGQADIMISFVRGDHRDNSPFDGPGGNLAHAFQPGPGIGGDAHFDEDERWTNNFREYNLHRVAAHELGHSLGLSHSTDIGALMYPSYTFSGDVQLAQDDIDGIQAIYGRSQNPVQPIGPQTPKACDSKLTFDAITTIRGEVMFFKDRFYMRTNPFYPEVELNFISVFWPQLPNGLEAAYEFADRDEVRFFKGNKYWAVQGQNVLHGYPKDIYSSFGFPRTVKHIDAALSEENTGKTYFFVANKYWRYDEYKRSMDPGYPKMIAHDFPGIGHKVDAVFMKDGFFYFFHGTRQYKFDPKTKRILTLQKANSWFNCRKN

Structure (SMILES): Cc1cc(C)c(N(Cc2ccccc2)S(=O)(=O)c2ccc(OCCNC(=O)c3cc4ccccc4o3)cc2)c(C(=O)NO)c1 [Compound E, Benzofuran-2-carboxylic acid (2-{4-[benzyl-(2-hydroxycarbamoyl-4,6-dimethyl-phenyl)-sulfamoyl]-phenoxy}-ethyl)-amide]
- S-TACE: selectivity, ratio of TACE IC50 with MMP-13 (TACE; TACE IC50 / MMP-13 IC50): >500 x
- selectivity against TACE (TACE; relative to MMP-13, text): > 500 fold
- selectivity against MMP-9 (MMP-9): 56 fold
- S-1: selectivity, ratio of MMP-1 IC50 with MMP-13 (MMP-1; MMP-1 IC50 / MMP-13 IC50): >5800 x
- selectivity against MMP-1 (MMP-1; relative to MMP-13, text): > 5800 fold
